Data taken from ChEMBL document CHEMBL4265962, “Pyrrolidine nucleoside bisphosphonates as antituberculosis agents targeting hypoxanthine-guanine phosphoribosyltransferase” (Eur J Med Chem, 2018).

Target: T1, Hypoxanthine-guanine phosphoribosyltransferase (Homo sapiens, UniProt P00492)
T1 sequence (P00492 whole entry): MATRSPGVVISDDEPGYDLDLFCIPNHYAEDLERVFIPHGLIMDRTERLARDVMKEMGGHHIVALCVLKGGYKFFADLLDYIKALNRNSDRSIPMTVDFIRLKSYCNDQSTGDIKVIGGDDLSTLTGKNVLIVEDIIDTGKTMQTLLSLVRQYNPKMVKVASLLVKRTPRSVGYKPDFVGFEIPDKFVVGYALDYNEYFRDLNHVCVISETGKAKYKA
Test: Inhibition of human HGPRT using fixed concentration of guanine and variable concentrations of PRib-PP as substrate by spectrophotometric analysis

| SMILES | Ki |
| --- | --- |
| O=C(CCP(=O)(O)O)N1C[C@@H](n2cnc3c(O)ncnc32)[C@H](OC[C@@H](O)P(=O)(O)O)C1 | 1 nM |
| O=C(CCP(=O)(O)O)N1C[C@@H](n2cnc3c(O)ncnc32)[C@H](OC[C@H](O)P(=O)(O)O)C1 | 8 nM |
